Measured values as given in patent US4857507A, “Angiotensinogen analogs” (Abbott Laboratories, priority 1987, dated 1989).

Amino acid sequences for entries named in this document (tags omitted). Residues count along the entry.
UniProt P00797, 67-406: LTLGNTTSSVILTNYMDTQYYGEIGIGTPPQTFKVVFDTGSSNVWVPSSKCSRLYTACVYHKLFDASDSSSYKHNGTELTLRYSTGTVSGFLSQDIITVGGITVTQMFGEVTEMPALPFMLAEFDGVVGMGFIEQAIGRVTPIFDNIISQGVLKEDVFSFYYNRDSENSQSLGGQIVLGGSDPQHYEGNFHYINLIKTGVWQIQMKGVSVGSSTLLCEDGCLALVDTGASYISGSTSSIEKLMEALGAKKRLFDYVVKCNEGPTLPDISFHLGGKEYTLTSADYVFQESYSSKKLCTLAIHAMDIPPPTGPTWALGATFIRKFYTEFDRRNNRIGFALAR

Target: T1, human renal renin (Homo sapiens, UniProt P00797)
T1 construct: human renal renin, free from acid proteolytic activity; from tissue; host or cells: human kidney (from the word 'renal')
Test: inhibition of human renal renin in vitro, angiotensin I formed measured by radioimmunoassay
Format: biochemical
Details: pH 6
Method: At the end of the incubation, the amount of angiotensin I formed is measured by radioimmunoassay and the molor concentration required to cause 50% inhibition, expressed as the IC50, is calculated.

- IC50: 2000 nM
Substance: Boc-Phe-Ala amide of 4-amino-1-cyclohexyl-3-hydroxy-6-methyl-1-(4-methylvaleryl)aminoheptane [Example 44]
